Source: patent publication US6713473B1, “Tricyclic compounds” (Meiji Seika Kaisha, Ltd., priority 1999, dated 2004)

Target: T1, human Y5 receptor (Homo sapiens, UniProt Q15761)
T1 sequence (Q15761 1-445): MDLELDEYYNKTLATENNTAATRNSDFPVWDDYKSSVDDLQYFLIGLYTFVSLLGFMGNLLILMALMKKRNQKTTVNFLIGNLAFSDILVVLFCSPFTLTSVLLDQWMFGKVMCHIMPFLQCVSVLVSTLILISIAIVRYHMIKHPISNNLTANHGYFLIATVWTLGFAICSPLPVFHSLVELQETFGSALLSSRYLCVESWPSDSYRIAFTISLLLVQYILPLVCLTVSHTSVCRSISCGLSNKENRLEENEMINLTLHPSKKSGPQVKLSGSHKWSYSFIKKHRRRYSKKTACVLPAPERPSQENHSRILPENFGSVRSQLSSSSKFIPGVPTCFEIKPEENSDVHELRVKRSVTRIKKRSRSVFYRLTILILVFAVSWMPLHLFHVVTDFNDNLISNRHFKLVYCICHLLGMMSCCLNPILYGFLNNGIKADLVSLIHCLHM
Assay: Y5 receptor binding inhibition test
Settings: 2 h, read-out: % Inhibition ratio (10 μM)

`CCn1c2ccccc2c2cc(NC(=O)C(C)C)ccc21` [Compound 3-4] gave an inhibition at 10 µM of 96%.
